# Literature values in patent US20070099863A1, “Compounds for the treatment of demyelinating and autoimmune diseases” (priority 2003, published 2007).
# Structures can show the parent of a compound that is named as a salt.
# Molecular target: T1, P2X3 (Homo sapiens, UniProt P56373)
# T1 sequence (P56373 1-397): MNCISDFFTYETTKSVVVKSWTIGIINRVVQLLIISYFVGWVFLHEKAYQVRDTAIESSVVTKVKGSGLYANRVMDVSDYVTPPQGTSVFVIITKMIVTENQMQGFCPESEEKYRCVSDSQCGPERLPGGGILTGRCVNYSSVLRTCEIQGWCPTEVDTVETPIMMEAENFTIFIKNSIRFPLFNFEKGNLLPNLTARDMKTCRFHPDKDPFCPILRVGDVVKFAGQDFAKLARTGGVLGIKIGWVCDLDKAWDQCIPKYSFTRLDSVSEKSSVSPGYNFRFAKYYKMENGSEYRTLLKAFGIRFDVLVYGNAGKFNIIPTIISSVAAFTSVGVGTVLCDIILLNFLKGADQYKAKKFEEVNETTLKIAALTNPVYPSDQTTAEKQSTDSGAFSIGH
# Details: P2X3 subtype; read-out: IC50 in relation to P2X3; cited from earlier work
compound,measurement,value
"Cc1nc(N=Nc2ccc(S(=O)(=O)O)cc2S(=O)(=O)O)c(COP(=O)(O)O)c(C=O)c1O [PPADS, tetrasodium salt of pyridoxalphosphate-6-azophenyl-2′,4′-disulfonic acid]",IC50,1000 nM
